# Target: HLA-DRB1*0404 (human)
# Assay: radioligand binding
# Settings: both partners purified
row,Binder,IC50 [nM]
1,"EKVPVSEVMGTTLAEMSTPEAT (gp100/pmel17 melanoma-associated antigen, residues 377-398; also called gp100377-398; g377; source: synthetic peptide (FMOC chemistry, UPCI Peptide Synthesis Facility), >90% pure) [gp100/pmel17 377-398]",92
2,"IYRRRLMKQDFSVPQLPHS (gp100/pmel17 melanoma-associated antigen, residues 615-633 on gp100 numbering, 622-640 on pmel17 numbering; also called gp100615-633 (identical to pmel17622-640 ); g615; source: synthetic peptide (FMOC chemistry, UPCI Peptide Synthesis Facility), >90% pure) [gp100 615-633 / pmel17 622-640]",9
3,"YGQMKNGSTPMFNDINIYDL (tyrosinase melanoma-associated antigen, residues 156-175; also called tyr.156-175; tyr156; source: synthetic peptide (FMOC chemistry, UPCI Peptide Synthesis Facility), >90% pure) [tyrosinase 156-175]",953
4,"ALHIYMNGTMSQVQGSA (also called tyr.365-381N; tyr365N; source: synthetic peptide (FMOC chemistry, UPCI Peptide Synthesis Facility), >90% pure) [tyrosinase 365-381N]",174

# Target: HLA-DRB1*0401 (human)
# Assay: radioligand binding
# Settings: both partners purified
row,Binder,IC50 [nM]
1,"MTPAEVSIVVLSGTTAAQVTTT (gp100/pmel17 melanoma-associated antigen, residues 400-421; also called gp100400-421; g400; source: synthetic peptide (FMOC chemistry, UPCI Peptide Synthesis Facility), >90% pure) [gp100/pmel17 400-421]",148
2,"ALHIYMNGTMSQVQGSA (also called tyr.365-381N; tyr365N; source: synthetic peptide (FMOC chemistry, UPCI Peptide Synthesis Facility), >90% pure) [tyrosinase 365-381N]",1740

# — article PMC2363969 (British Journal of Cancer, 2001)
